Biological target: GLP-1 (human, cloned into CHO cells) receptor (Homo sapiens, UniProt P43220)

By UniProt entry, the sequences of proteins in these tests, tags left out. Residues count along the entry.
UniProt P43220, 24-463: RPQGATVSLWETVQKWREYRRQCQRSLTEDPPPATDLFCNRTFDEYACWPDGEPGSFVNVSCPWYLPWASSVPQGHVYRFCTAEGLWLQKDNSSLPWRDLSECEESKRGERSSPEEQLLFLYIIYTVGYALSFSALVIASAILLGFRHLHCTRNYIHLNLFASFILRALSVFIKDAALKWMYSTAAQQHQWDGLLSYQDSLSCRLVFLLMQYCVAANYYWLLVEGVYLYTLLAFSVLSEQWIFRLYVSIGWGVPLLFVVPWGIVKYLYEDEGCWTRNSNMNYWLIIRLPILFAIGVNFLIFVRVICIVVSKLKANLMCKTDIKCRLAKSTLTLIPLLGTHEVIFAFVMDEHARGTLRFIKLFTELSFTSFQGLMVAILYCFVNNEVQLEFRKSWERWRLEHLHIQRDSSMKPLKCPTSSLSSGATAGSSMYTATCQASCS

In the case of `CC[C@H](C)[C@H](NC(=O)[C@H](Cc1ccccc1)NC(=O)[C@H](CCC(=O)O)NC(=O)[C@@H]1CCCCNC(=O)CC[C@H](NC(=O)[C@H](CC(=O)O)NC(=O)[C@H](CC(C)C)NC(=O)[C@H](Cc2ccc(O)cc2)NC(=O)[C@H](CCCCN)NC(=O)[C@H](CO)NC(=O)[C@H](Cc2ccc(O)cc2)NC(=O)[C@H](CC(=O)O)NC(=O)[C@H](CO)NC(=O)[C@@H](NC(=O)[C@H](Cc2ccccc2)NC(=O)[C@@H](NC(=O)CNC(=O)[C@H](CCC(N)=O)NC(=O)C(C)(C)NC(=O)[C@@H](N)Cc2c[nH]cn2)[C@@H](C)O)[C@@H](C)O)C(=O)N[C@@H](CCC(N)=O)C(=O)N[C@@H](C)C(=O)N[C@@H](C)C(=O)N1)C(=O)N[C@@H](CCCCNC(=O)[C@H]1O[C@@H](OCCCCCCCCCCCCCCCCCC(=O)O)[C@H](O)[C@@H](O)[C@@H]1O)C(=O)N[C@@H](Cc1c[nH]c2ccccc12)C(=O)N[C@@H](CC(C)C)C(=O)N[C@@H](CC(C)C)C(=O)N[C@@H](CCC(N)=O)C(=O)N[C@H](C(N)=O)[C@@H](C)O` [EU-A1872], the “Ovalbumin vs. BSA-fold improv/worsen, GLP-1 R” value is reported as 30 fold.
